The values that follow are results of earlier work, collected in PMC8081377 (Mutagenesis, 2021).

The test system of this data set is bacterial strains (Std strains, TA102, E. coli). Particulars: only in the presence of metabolic activation; ref Supplementary Table S1; cited from earlier work.

Regarding `C1=Cc2cc3cccc4ccc5ccc1c2c5c43` [Cyclopenta[c,d]pyrene (CPPE), Cyclopenta[c,d]pyrene], the “Ames assay” value is on record as “positive”.
